Earlier results, collected in patent publication US12491184B2 (Veradermics, Incorporated, priority 2022, dated 2025).

Settings: during the first 12 h; cited from earlier work

## Nc1cc(N2CCCCC2)nc(N)[n+]1[O-] [minoxidil]
  predominant metabolite in the urine: glucuronide conjugate
